Test [1] relates to Haemophilus influenzae 54A1100. Kind of test: Murine acute infection (peritonitis) model challenged with Haemophilus influenzae. In kind it is in vivo, mouse.
The subject of test [2] is Streptococcus pneumoniae 02J1016. Nature of the test: Murine lung (pulmonary/pneumonia) infection model challenged with Streptococcus pneumoniae. The test is classed as in vivo, mouse.
The test system of test [3] is Enterococcus faecalis 03A1085. Nature of the test: Murine acute infection (peritonitis) model challenged with Enterococcus faecalis.
For test [4], the system named is Streptococcus pyogenes 02C0203. Nature of the test: Murine acute infection (peritonitis) model challenged with Streptococcus pyogenes. In kind it is in vivo, mouse. The settings on record: P.O. q.d.
In test [5] the test system is E. faecalis 03A1085. Nature of the test: MIC determination, E. faecalis. The test is classed as cell-based. The settings on record: Enterococcus faecalis, 03A1085, E. faecalis 03A1085. As for the experimental part:
MIC Determinations. Streptococcus pneumoniae, S. pyogenes, E. faecalis, and H. influenzae MICs were determined using the broth microdilution procedure recommended by the NCCLS. Test trays were incubated at 35C without carbon dioxide. For testing of streptococci, the cation-adjusted Mueller-Hinton broth was supplemented with 2–3% lysed horse blood. For testing H. influenzae, freshly prepared Haemophilus Test Medium broth was used.
Bacterial Strains. • S. pneumoniae 02J1016, serotype 3, originally isolated from blood culture (strain P 4241) (MLS- and penicillin-susceptible). • S. pyogenes 02C0203, ATCC 12384, group A, type 3 (MLS-susceptible). • E. faecalis 03A1085, vancomycin susceptible clinically derived strain. • H. influenzae 54A1100, (43095 ATCC Fulghum strain) non-serotype B strain originally isolated from otitis media (macrolide and penicillin susceptible). • H. influenzae 54A1218, clinically derived non-serotype B strain (macrolide-susceptible, penicillin-resistant, TEM-1 beta-lactamase).

[6] abbreviates: oral QD, murine peritonitis model.
Setting [7] is: previously tested, standard dosing paradigm (b.i.d. on day 1), s.c.

In brackets after ≈: the same amount, converted by molar mass. Like-named read-outs stand apart in the source and are kept apart here. A value given as a limit tells only on which side of the number the result lay.

As for `CC[C@H]1OC(=O)[C@H](C)[C@@H](O[C@H]2C[C@@](C)(OC)[C@@H](O)[C@H](C)O2)[C@H](C)[C@@H](O[C@@H]2O[C@H](C)C[C@H](N(C)C)[C@H]2O)[C@](C)(O)C[C@@H](C)CN(C)[C@H](C)[C@@H](O)[C@]1(C)O` [Azithromycin, 9a-aza-9a-methyl-9-deoxo-9a-homoerythromycin A], the PD50 stood at 49.9 mg/kg/regimen in test [1] (Q.D. [2 days]); 181.6 mg/kg/regimen in test [1] (Q.D. [3 days]); 25.3 mg/kg/regimen in test [1] (s.c., Q.D. [1 day]); 20.4 mg/kg/regimen in test [2] (P.O. q.d., 1 day regimen); 27.6 mg/kg/regimen in test [2] (P.O. q.d., 2 day regimen); 49.4 mg/kg/regimen in test [2] (P.O. q.d., 3 day regimen). Also, the PD50 in test [3] (Q.D. [2 days]) amounted to 42.7 mg/kg/regimen; in test [3] (Q.D. [3 days]), 59.3 mg/kg/regimen; in test [3] (one dose (Q.D. on day one), s.c.) it was 14.8 mg/kg; in test [3] (setting [7]) it was 10.1 mg/kg; in test [3] (s.c., Q.D. [1 day]), 14.8 mg/kg/regimen. For the same molecule, the “Oral PD50” value in test [3] (Dosing Regimen 1 day) is 14.8 (10.2–19.5) mg/kg/day; in test [3] (Dosing Regimen 2 days), 42.7 (42.2–43.2) mg/kg/day; in test [3] (Dosing Regimen 3 days) it was 59.3 (27.5–91.2) mg/kg/day. The “ED50 Three-Day Therapy” value in test [3] (setting [6]) worked out at 44.4 mg/kg/therapy. The “ED50 Two-Day Therapy” value in test [3] (setting [6]) is recorded as 44.5 mg/kg/therapy.

Take `CC[C@H]1OC(=O)[C@H](C)[C@@H](O[C@H]2C[C@@](C)(OC)[C@@H](O)[C@H](C)O2)[C@H](C)[C@@H](O[C@@H]2O[C@H](C)C[C@H](N(C)C)[C@H]2O)[C@](C)(OC)C[C@@H](C)C(=O)[C@H](C)[C@@H](O)[C@]1(C)O` [Clarithromycin]: the PD50 is given as 11.3 mg/kg/regimen in test [4] (1 day regimen); 2.2 mg/kg/regimen in test [4] (2 day regimen); 3.1 mg/kg/regimen in test [4] (3 day regimen); above 200 mg/kg/regimen in test [1] (s.c., Q.D. [1 day]); above 200 mg/kg/regimen in test [2] (P.O. q.d., 1 day regimen); above 200 mg/kg/regimen in test [2] (P.O. q.d., 2 day regimen). Also, the PD50 in test [2] (P.O. q.d., 3 day regimen) was above 200 mg/kg/regimen; in test [2] (q.d. regimen regardless as to the duration of therapy), above 200 mg/kg/regimen; in test [3] (Q.D. [2 days]), 23.7 mg/kg/regimen; in test [3] (setting [7]), 1.7 mg/kg; in test [3] (s.c., Q.D. [1 day]), 2.2 mg/kg/regimen. Also, the MIC in test [5] (read-out: MIC) is 3.12 µg/mL (≈ 4.17 µM); in test [5] (with serum, read-out: MIC w/serum), 3.12 µg/mL (≈ 4.17 µM). Besides, the “Mice Surviving/Total” value in test [3] (0.52 mg/kg/day, Q.D. [3 days]) is on record as 3/10; in test [3] (0.78 mg/kg/day, Q.D. [2 days]) it was 1/10; in test [3] (1.56 mg/kg/day, Q.D. [1 day]) it was 3/10; in test [3] (2.08 mg/kg/day, Q.D. [3 days]), 1/10; in test [3] (3.12 mg/kg/day, Q.D. [2 days]) it was 5/10; in test [3] (6.25 mg/kg/day, Q.D. [1 day]), 7/10. Also, the “Mice Surviving/Total” value in test [3] (8.3 mg/kg/day, Q.D. [3 days]) is listed as 8/10; in test [3] (25 mg/kg/day, Q.D. [1 day]), 10/10; in test [3] (33.3 mg/kg/day, Q.D. [3 days]), 9/10; in test [3] (50 mg/kg/day, Q.D. [2 days]), 10/10; in test [3] (100 mg/kg/day, Q.D. [1 day]), 10/10; in test [3] ([…], Q.D. [2 days]), 6/10. Besides, the “Oral PD50” value is on record as 2.2 (0.9–4.2) mg/kg/day in test [3] (Dosing Regimen 1 day), 23.7 (5.4–42) mg/kg/day in test [3] (Dosing Regimen 2 days) and 18.8 (7.2–30.3) mg/kg/day in test [3] (Dosing Regimen 3 days). In addition, in test [3] (setting [6]), the “ED50 One-Day Therapy” value was 6.1 mg/kg/therapy. Also, the “ED50 Three-Day Therapy” value in test [3] (setting [6]) amounted to 23.1 mg/kg/therapy. In addition, the “ED50 Two-Day Therapy” value in test [3] (setting [6]) is 16.6 mg/kg/therapy.

The values above are taken from patent US6987093B2 (priority 2001, dated 2006).
